The assay has as its system Purified T cells. Description: T cell proliferation assay (allo MLR, 3H-thymidine incorporation). It counts as cell-based, human. The conditions noted are these: 50 U/ml IL-2 or 1 ug/ml anti-CD28 Mab. As to the method: Enriched T cell populations were purified from buffy coats obtained from normal red cross donors using nylon wool columns by previously reported procedures. See, e.g., Agrawal et al., J. Immunol. 157:2089-95 (1996) and Agrawal et al., J. Immunol. 157:3229-34 (1996). For the allo MLR, mitomycin C treated allogeneic PBLs were cocultured with purified T cells in the presence or absence of affinity purified MUC-1 mucin or control OSM. In most of the experiments, the T cells were cultured 6-7 days in AIM V medium in the absence or presence of MUC-1, MUC-1 derivative or OSM at the indicated concentration. After this time, the T cells were harvested, washed and cultured as indicated.
Purified T cells (10^6/ml) were cultured in AIM V medium with allo PBLs in the absence or presence of MUC-1, MUC-1 derivative or OSM 10 ug/ml for 6-7 days. T cells were harvested and plated in 96 well flat bottom plates at 10^5/well with allo PBLs (10^5/well), in the presence or absence of affinity purified MUC-1, MUC-1 derivative or OSM. […] The cells were harvested on the fifth day and ^3H-thymidine incorporation was measured by liquid scintillation.
Synthetic peptides, as described in Example 8, corresponding to 3, 4, 5 or 6 MUC-1 repeats, were added at 10 ug/ml to allo cultures and T cell proliferation was measured at 14 days from the start of culture. […]

For the substance “IL-2: IL-2 added at 50 U/ml to control cultures [reference compound]”, the “reversal of mucin-mediated inhibition of T cell proliferation” value was “reversed”.

The values are drawn from patent US20020044943A1, “MUC-1 as an immunosuppressive therapeutic agent for the treatment of inflammatory and autoimmune conditions” (priority 1997, published 2002).
